Assay results reported in ChEMBL document CHEMBL1140995, “Synthesis and biological evaluation of aminomethylphenol derivatives as inhibitors of the murine GABA transporters mGAT1-mGAT4” (Eur J Med Chem, 2008).

Biological target: Sodium- and chloride-dependent GABA transporter 1 (Mus musculus, UniProt P31648)
Experiment: Inhibition of [3H]GABA uptake at mouse GAT1 expressed in HEK cells
Assay type: cell-based, HEK293
Outline: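 Stably transfected HEK cells were trypsinized, washed in PBS, and resuspended in Krebs-Tris buffer pH 7.2 at about 100,000 cells/well. They were pre-equilibrated 25 min at 37 °C with compound in 1% DMSO, then given 8 nM [³H]GABA plus 32 nM unlabeled GABA for 4 min.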

Row | SMILES | IC50
1 | O=C(O)[C@H]1CCCNC1 [(S)-NIPECOTIC ACID] | 74.1 µM
2 | O=C(O)[C@@H]1CCCNC1 [(R)-NIPECOTIC ACID] | 8.51 µM
3 | O=C(O)C1CCCNC1 (stereo not drawn) [NIPECOTIC ACID] | 13.2 µM
